PubChem BioAssay (NCI)
Some results for these compounds are left out of this collection, so the calls shown say nothing about other tests.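 1) Cells in 96-well plates. 2) Compound, 48 h, 5 concentrations. 3) Linear interpolation between surrounding doses. 4) Unreached endpoint = highest concentration. Here, GI50 denotes the concentration required for 50% inhibition of growth. TGI: concentration producing complete growth inhibition.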

Tests used:
Test in all cases: NCI tumour cell line growth inhibition, 48 h
[1] = tested on: COLO 205 colon
[2] = tested on: IGROV1 ovarian
[3] = tested on: T-47D breast
[4] = tested on: UO-31 renal
[5] = tested on: LOX IMVI melanoma
[6] = tested on: UACC-62 melanoma
[7] = tested on: K-562 leukemia
[8] = tested on: HCC-2998 colon
[9] = tested on: MALME-3M melanoma
[10] = tested on: SK-MEL-28 melanoma
[11] = tested on: RPMI-8226 leukemia
[12] = tested on: HCT-116 colon
[13] = tested on: OVCAR-8 ovarian
[14] = tested on: OVCAR-4 ovarian
[15] = tested on: M14 melanoma
[16] = tested on: SF-539 CNS
[17] = tested on: HCT-15 colon
[18] = tested on: HT29 colon
[19] = tested on: OVCAR-5 ovarian
[20] = tested on: OVCAR-3 ovarian
[21] = tested on: CCRF-CEM leukemia
[22] = tested on: SNB-75 CNS
[23] = tested on: A498 renal
[24] = tested on: SNB-19 CNS
[25] = tested on: MOLT-4 leukemia
[26] = tested on: MCF7 breast
[27] = tested on: SK-MEL-5 melanoma
[28] = tested on: U251 CNS
[29] = tested on: SN12C renal
[30] = tested on: SK-MEL-2 melanoma
[31] = tested on: EKVX NSCLC
[32] = tested on: CAKI-1 renal
[33] = tested on: NCI-H23 lung
[34] = tested on: MDA-MB-435
[35] = tested on: KM12 colon
[36] = tested on: BT-549 breast
[37] = tested on: HS 578T breast
[38] = tested on: HL-60(TB) leukemia
[39] = tested on: PC-3 prostate
[40] = tested on: UACC-257 melanoma
[41] = tested on: ACHN renal
[42] = tested on: NCI-H460 lung
[43] = tested on: A549 NSCLC
[44] = tested on: DU-145 prostate
[45] = tested on: MDA-MB-231 breast
[46] = tested on: SR leukemia
[47] = tested on: RXF 393 renal
[48] = tested on: MDA-N
[49] = tested on: 786-0 renal
[50] = tested on: HOP-92 NSCLC
[51] = tested on: SW-620 colon
[52] = tested on: NCI/ADR-RES ovarian
[53] = tested on: NCI-H226 lung
[54] = tested on: SK-OV-3 ovarian
[55] = tested on: TK-10 renal
[56] = tested on: SF-268 CNS
[57] = tested on: HOP-62 NSCLC
[58] = tested on: SF-295 CNS
[59] = tested on: NCI-H522 lung

Work on CC(C)/C=C\C(O)(C(=O)OC1CN2CCC1CC2)C1CCCC1 (stereo unspecified) yielded a GI50 [1] of 80.2 µM, a TGI [1] greater than 100 µM and a GI50 [2] greater than 100 µM. The TGI [2] was greater than 100 µM, the GI50 [3] was greater than 100 µM and the TGI [3] was greater than 100 µM. It also gave a GI50 [4] of 78.1 µM, a TGI [4] greater than 100 µM and a GI50 [5] greater than 100 µM. It also gave a TGI [5] greater than 100 µM, a GI50 [6] of 76 µM and a TGI [6] greater than 100 µM. For the same molecule, the GI50 [7] was 59.4 µM, the TGI [7] was greater than 100 µM and the GI50 [8] was 83.3 µM. It also gave a TGI [8] greater than 100 µM, a GI50 [9] greater than 100 µM and a TGI [9] greater than 100 µM. For the same molecule, the GI50 [10] was greater than 100 µM, the TGI [10] was greater than 100 µM and the GI50 [11] was greater than 100 µM. It also gave a TGI [11] greater than 100 µM, a GI50 [12] greater than 100 µM and a TGI [12] greater than 100 µM. It also gave a GI50 [13] greater than 100 µM, a TGI [13] greater than 100 µM and a GI50 [14] greater than 100 µM. The TGI [14] was greater than 100 µM, the GI50 [15] was greater than 100 µM and the TGI [15] was greater than 100 µM. The GI50 [16] was greater than 100 µM, the TGI [16] was greater than 100 µM and the GI50 [17] was greater than 100 µM. It also gave a TGI [17] greater than 100 µM, a GI50 [18] of 45 µM and a TGI [18] greater than 100 µM. The GI50 [19] was greater than 100 µM, the TGI [19] was greater than 100 µM and the GI50 [20] was greater than 100 µM. The TGI [20] was greater than 100 µM, the GI50 [21] was greater than 100 µM and the TGI [21] was greater than 100 µM. It also gave a GI50 [22] of 40.1 µM, a TGI [22] greater than 100 µM and a GI50 [23] greater than 100 µM. It also gave a TGI [23] greater than 100 µM, a GI50 [24] greater than 100 µM and a TGI [24] greater than 100 µM. For the same molecule, the GI50 [25] was greater than 100 µM, the TGI [25] was greater than 100 µM and the GI50 [26] was greater than 100 µM. The TGI [26] was greater than 100 µM, the GI50 [27] was 84.1 µM and the TGI [27] was greater than 100 µM. The GI50 [28] was greater than 100 µM, the TGI [28] was greater than 100 µM and the GI50 [29] was greater than 100 µM. For the same molecule, the TGI [29] was greater than 100 µM, the GI50 [30] was greater than 100 µM and the TGI [30] was greater than 100 µM. The GI50 [31] was greater than 100 µM, the TGI [31] was greater than 100 µM and the GI50 [32] was greater than 100 µM. It also gave a TGI [32] greater than 100 µM, a GI50 [33] greater than 100 µM and a TGI [33] greater than 100 µM. The GI50 [34] was greater than 100 µM, the TGI [34] was greater than 100 µM and the GI50 [35] was greater than 100 µM. It also gave a TGI [35] greater than 100 µM, a GI50 [36] greater than 100 µM and a TGI [36] greater than 100 µM. The GI50 [37] was greater than 100 µM, the TGI [37] was greater than 100 µM and the GI50 [38] was greater than 100 µM. The TGI [38] was greater than 100 µM, the GI50 [39] was 85 µM and the TGI [39] was greater than 100 µM. The GI50 [40] was 66.6 µM, the TGI [40] was greater than 100 µM and the GI50 [41] was greater than 100 µM. For the same molecule, the TGI [41] was greater than 100 µM, the GI50 [42] was greater than 100 µM and the TGI [42] was greater than 100 µM. The GI50 [43] was greater than 100 µM, the TGI [43] was greater than 100 µM and the GI50 [44] was greater than 100 µM. For the same molecule, the TGI [44] was greater than 100 µM, the GI50 [45] was greater than 100 µM and the TGI [45] was greater than 100 µM. It also gave a GI50 [46] greater than 100 µM, a TGI [46] greater than 100 µM and a GI50 [47] greater than 100 µM. For the same molecule, the TGI [47] was greater than 100 µM, the GI50 [48] was greater than 100 µM and the TGI [48] was greater than 100 µM. The GI50 [49] was greater than 100 µM, the TGI [49] was greater than 100 µM and the GI50 [50] was greater than 100 µM. It also gave a TGI [50] greater than 100 µM, a GI50 [51] greater than 100 µM and a TGI [51] greater than 100 µM. It also gave a GI50 [52] greater than 100 µM, a TGI [52] greater than 100 µM and a GI50 [53] greater than 100 µM. For the same molecule, the TGI [53] was greater than 100 µM, the GI50 [54] was greater than 100 µM and the TGI [54] was greater than 100 µM. It also gave a GI50 [55] greater than 100 µM, a TGI [55] greater than 100 µM and a GI50 [56] greater than 100 µM. For the same molecule, the TGI [56] was greater than 100 µM, the GI50 [57] was greater than 100 µM and the TGI [57] was greater than 100 µM. For the same molecule, the GI50 [58] was 62.2 µM and the TGI [58] was greater than 100 µM.

Molecule CN1CCC(OC(=O)C(O)(c2ccccc2)c2ccns2)CC1 (stereo unspecified) has a TGI [1] greater than 100 µM, a TGI [2] greater than 100 µM and a TGI [3] greater than 100 µM. The TGI [4] was greater than 100 µM, the TGI [5] was greater than 100 µM and the TGI [6] was greater than 100 µM. It also gave a TGI [7] greater than 100 µM, a TGI [8] greater than 100 µM and a TGI [9] greater than 100 µM. It also gave a TGI [10] greater than 100 µM, a TGI [11] greater than 100 µM and a TGI [12] greater than 100 µM. The TGI [13] was greater than 100 µM, the TGI [15] was greater than 100 µM and the TGI [16] was greater than 100 µM. The TGI [17] was greater than 100 µM, the TGI [18] was greater than 100 µM and the TGI [19] was greater than 100 µM. It also gave a TGI [20] greater than 100 µM, a TGI [21] greater than 100 µM and a TGI [22] greater than 100 µM. For the same molecule, the TGI [24] was greater than 100 µM, the TGI [26] was greater than 100 µM and the TGI [27] was greater than 100 µM. It also gave a TGI [28] greater than 100 µM, a TGI [29] greater than 100 µM and a TGI [31] greater than 100 µM. The TGI [32] was greater than 100 µM, the TGI [33] was greater than 100 µM and the TGI [35] was greater than 100 µM. The TGI [38] was greater than 100 µM, the TGI [39] was greater than 100 µM and the TGI [40] was greater than 100 µM. It also gave a TGI [41] greater than 100 µM, a TGI [43] greater than 100 µM and a TGI [44] greater than 100 µM. The TGI [45] was greater than 100 µM, the TGI [59] was greater than 100 µM and the TGI [46] was greater than 100 µM. The TGI [47] was greater than 100 µM, the TGI [48] was greater than 100 µM and the TGI [49] was greater than 100 µM. For the same molecule, the TGI [51] was greater than 100 µM, the TGI [52] was greater than 100 µM and the TGI [53] was greater than 100 µM. It also gave a TGI [54] greater than 100 µM, a TGI [55] greater than 100 µM and a TGI [56] greater than 100 µM. It also gave a TGI [57] greater than 100 µM and a TGI [58] greater than 100 µM.
